Source: ChEMBL document CHEMBL4715718, “Methyl Protodioscin, a Steroidal Saponin, Inhibits Neointima Formation in Vitro and in Vivo” (J Nat Prod, 2016)

Tested on: A7R5
Assay: Antiproliferative activity against rat A7r5 cells assessed as reduction in cell viability after 24 hrs by MTT assay
Format: functional, cell-based

CO[C@]1(CC[C@@H](C)CO[C@@H]2O[C@H](CO)[C@@H](O)[C@H](O)[C@H]2O)O[C@H]2C[C@H]3[C@@H]4CC=C5C[C@@H](O[C@@H]6O[C@H](CO)[C@@H](O[C@@H]7O[C@@H](C)[C@H](O)[C@@H](O)[C@H]7O)[C@H](O)[C@H]6O[C@@H]6O[C@@H](C)[C@H](O)[C@@H](O)[C@H]6O)CC[C@]5(C)[C@H]4CC[C@]3(C)[C@H]2[C@@H]1C [METHYLPROTODIOSCIN]
Activity: Dose-dependent effect
